These are literature values, as cited in article PMC7822029, “Nanoparticles Based on Quaternary Ammonium Chitosan-methyl-β-cyclodextrin Conjugate for the Neuropeptide Dalargin Delivery to the Central Nervous System: An In Vitro Study” (Pharmaceutics, 2020).

The series concerns Caco-2 monolayers. Particulars: cited from earlier work. As for the experimental part:
The in vitro DAL-NP permeation studies were carried out with Caco-2, which are widely used to simulate the intestinal environment in studies of oral formulations, and the bEnd.3 brain murine endothelioma cell line to simulate the BBB [24, 25]. Toxic effects of formulations were determined to select the highest peptide/carrier concentration tolerated for the permeation tests (Figure 4). As it was reported, the Leu-enkephalin transport across Caco-2 monolayers corresponds to zero value of apparent permeability. This value, in line with the data in Figure 3, was related to a rapid diges ...

Take “Leu-enkephalin: parent enkephalin peptide, literature Caco-2 transport”: the “apparent permeability across Caco-2 monolayers” value was “zero value”.
